Data taken from ChEMBL document CHEMBL1126447 (Bioorg Med Chem Lett, 1992).

By UniProt entry, the sequences of proteins in these tests, tags left out. Where a name states a change or a piece, a line headed by the entry shows the natural chain unless it says otherwise.
UniProt P22303: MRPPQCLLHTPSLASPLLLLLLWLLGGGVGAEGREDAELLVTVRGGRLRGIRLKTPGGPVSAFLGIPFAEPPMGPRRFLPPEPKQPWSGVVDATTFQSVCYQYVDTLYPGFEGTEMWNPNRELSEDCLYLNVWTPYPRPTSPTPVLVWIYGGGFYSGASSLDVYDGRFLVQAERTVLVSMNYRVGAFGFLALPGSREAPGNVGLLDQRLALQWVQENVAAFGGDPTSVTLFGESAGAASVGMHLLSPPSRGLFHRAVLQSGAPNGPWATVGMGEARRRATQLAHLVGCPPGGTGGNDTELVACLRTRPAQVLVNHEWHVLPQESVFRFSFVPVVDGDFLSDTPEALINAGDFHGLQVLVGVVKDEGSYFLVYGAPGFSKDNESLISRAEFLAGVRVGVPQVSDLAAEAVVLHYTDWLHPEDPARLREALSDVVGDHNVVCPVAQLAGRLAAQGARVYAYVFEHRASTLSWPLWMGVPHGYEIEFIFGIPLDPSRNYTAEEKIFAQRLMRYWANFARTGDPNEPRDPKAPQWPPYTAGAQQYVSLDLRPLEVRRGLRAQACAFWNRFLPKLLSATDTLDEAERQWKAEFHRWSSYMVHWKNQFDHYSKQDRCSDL
UniProt O42275: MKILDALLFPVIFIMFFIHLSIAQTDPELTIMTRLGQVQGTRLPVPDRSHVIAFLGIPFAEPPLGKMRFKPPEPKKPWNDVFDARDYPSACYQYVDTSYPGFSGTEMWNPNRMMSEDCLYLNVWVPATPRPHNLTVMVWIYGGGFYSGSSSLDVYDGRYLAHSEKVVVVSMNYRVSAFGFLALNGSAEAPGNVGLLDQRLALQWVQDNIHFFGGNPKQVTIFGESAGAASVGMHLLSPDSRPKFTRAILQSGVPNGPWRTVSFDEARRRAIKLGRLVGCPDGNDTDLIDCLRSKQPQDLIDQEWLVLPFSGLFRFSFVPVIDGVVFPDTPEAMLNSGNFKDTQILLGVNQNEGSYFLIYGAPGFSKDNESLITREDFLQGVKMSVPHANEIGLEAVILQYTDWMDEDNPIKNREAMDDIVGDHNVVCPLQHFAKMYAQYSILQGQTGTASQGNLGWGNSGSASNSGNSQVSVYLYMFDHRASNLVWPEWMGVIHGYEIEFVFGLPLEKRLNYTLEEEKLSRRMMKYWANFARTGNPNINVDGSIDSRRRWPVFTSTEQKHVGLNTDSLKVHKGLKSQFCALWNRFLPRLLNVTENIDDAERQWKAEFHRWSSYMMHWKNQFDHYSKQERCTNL

Columns and labels:
Acetylcholinesterase [1] = target: Acetylcholinesterase (Homo sapiens, UniProt P22303)
Acetylcholinesterase [2] = target: Acetylcholinesterase (Electrophorus electricus, UniProt O42275)

Row | Structure (SMILES) | IC50 (Acetylcholinesterase [1]) [nM] | IC50 (Acetylcholinesterase [2]) [nM]
1 | Nc1c2c(nc3ccccc13)C1CCC2C1 (configuration not stated) | 31.5 | –
2 | CNC(=O)Oc1ccc2c(c1)[C@]1(C)CCN(C)[C@@H]1N2C [PHYSOSTIGMINE] | – | 275
